Assay results from patent publication US7951954B2, “Bezothiazol derivatives as Beta2 adrenoreceptor agonists” (AstraZeneca AB, priority 2006, dated 2011).
Structures can show the parent of a compound that is named as a salt.

Biological target: T1, Adrenergic β2 (Homo sapiens, UniProt P07550)
T1 construct: endogenous in cells; host or cells: H292 cells
Experiment: Adrenergic β2 mediated cAMP production in H292 cells (AlphaScreen cAMP detection)
Assay type: cell-based

In the case of O=c1[nH]c2c(O)ccc([C@@H](O)CNCCc3cccc(-c4cccc(CNCc5ccccc5)c4)c3)c2s1 [Example 29, 7-(2-{2-[3′-(Benzylamino-methyl)-biphenyl-3-yl]-ethylamino}-1R-hydroxy-ethyl)-4-hydroxy-3H-benzothiazol-2-one bis-trifluoroacetate salt], the “Intrinsic Activity” value is reported as 0.8.
